Data on one molecule can be found in patent US12617790B2, “Mitragynine analogs and uses thereof” (Memorial Sloan-Kettering Cancer Center, priority 2015, dated 2026).

The chains behind the UniProt entries cited, without tags or fusion partners.
UniProt P42866, whole entry: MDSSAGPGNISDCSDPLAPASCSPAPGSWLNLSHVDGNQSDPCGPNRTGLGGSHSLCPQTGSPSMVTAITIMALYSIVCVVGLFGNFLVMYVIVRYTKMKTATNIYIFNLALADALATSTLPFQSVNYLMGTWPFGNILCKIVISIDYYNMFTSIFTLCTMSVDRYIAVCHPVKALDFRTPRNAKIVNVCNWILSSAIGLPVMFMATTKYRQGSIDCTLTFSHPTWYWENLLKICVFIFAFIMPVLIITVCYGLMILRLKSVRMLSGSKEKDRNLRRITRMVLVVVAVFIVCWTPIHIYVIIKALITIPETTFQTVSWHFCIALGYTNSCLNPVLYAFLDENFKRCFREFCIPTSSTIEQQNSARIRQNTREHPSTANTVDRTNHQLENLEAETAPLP
UniProt P32300, whole entry: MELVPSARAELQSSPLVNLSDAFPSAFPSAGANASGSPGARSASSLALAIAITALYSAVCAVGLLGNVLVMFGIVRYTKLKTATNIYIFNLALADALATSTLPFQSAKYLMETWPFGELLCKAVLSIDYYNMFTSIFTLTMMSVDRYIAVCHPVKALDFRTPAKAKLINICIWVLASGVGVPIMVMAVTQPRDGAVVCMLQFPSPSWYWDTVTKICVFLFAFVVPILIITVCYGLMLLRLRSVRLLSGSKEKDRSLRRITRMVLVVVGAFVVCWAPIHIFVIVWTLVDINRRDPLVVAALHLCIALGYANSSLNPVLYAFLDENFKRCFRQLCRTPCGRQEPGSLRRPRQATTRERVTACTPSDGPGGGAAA

Experiment [1] addresses T1, MOR-1 (Mus musculus, UniProt P42866).
T1 construct: expressed in transfected cells; host or cells: CHO
The experiment is described as follows: Competition binding against 125I-IBNtxA in MOR-1/CHO membranes.

The target of experiment [2] is T2, DOR-1 (Mus musculus, UniProt P32300).
T2 construct: expressed in transfected cells; host or cells: CHO
Briefly: Competition binding against 125I-IBNtxA in DOR-1/CHO membranes. Particulars: 125I-IBNtxA (0.1 nM), CHO membranes, cloned mouse receptor; read-out: Affinity (Ki nM) DOR-1.

The term Ki denotes the dissociation constant of the complex between target and ligand, obtained from inhibition or displacement.

In the case of `CC[C@@H]1CN2CCc3c([nH]c4ccccc34)[C@@H]2C[C@@H]1/C(=C\OC)C(=O)OC` [VM1540, Methyl (E)-2-((2S,3S,12bS)-3-ethyl-1,2,3,4,6,7,12,12b-octahydroindolo[2,3-a]quinolizin-2-yl)-3-methoxyacrylate], the values for the Ki in experiment [1] and in experiment [2] were 57 nM and 172 nM, respectively.
